This passage reports Kd and Ki results from patent US5547845A (Duke University, priority 1994, dated 1996).

Amino acid sequences for entries named in this document (tags omitted).
UniProt P21728, whole entry: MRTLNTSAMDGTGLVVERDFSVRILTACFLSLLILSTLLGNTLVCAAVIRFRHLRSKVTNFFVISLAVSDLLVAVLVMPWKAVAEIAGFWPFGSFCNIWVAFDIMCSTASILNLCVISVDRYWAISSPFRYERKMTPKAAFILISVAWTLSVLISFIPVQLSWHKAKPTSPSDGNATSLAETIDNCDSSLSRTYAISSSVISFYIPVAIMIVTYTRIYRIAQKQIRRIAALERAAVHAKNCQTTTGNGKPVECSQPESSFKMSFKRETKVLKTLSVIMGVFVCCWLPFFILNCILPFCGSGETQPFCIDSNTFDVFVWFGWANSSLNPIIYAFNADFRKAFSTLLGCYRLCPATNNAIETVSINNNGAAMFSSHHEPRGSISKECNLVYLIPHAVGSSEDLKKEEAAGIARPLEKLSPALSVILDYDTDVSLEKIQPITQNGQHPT

Each structure is given as a SMILES string.

The target in test [1] is human D1 dopamine receptor (clone HGL26) (Homo sapiens, UniProt P21728). Description: Competition for [^125 I]SCH23982 binding to membranes of COS-7 cells expressing HGL26. The arrangement: a 2.3 kb EcoRI-XbaI restriction fragment containing the open reading frame was subcloned into the expression vector pCMV5; expressed in transfected cells; host or cells: African green monkey kidney COS-7 cells, transient, pCMV5.

The target in test [2] is human D1 dopamine receptor (clone HGR213-1) (Homo sapiens, UniProt P21728). Briefly: biochemical. The test is classed as binding. Also noted: expressed in transfected cells; host or cells: monkey kidney COS-7 cells, transient, PBC12BI.

`OCCN1CCN(CC/C=C2/c3ccccc3Sc3ccc(C(F)(F)F)cc32)CC1` [cis-flupenthixol]: the Kd in test [1] was found to be 1.6 nM. In test [2], this compound registered a Ki of 5.6 nM.

In test [1], `CNC[C@H](O)c1ccc(O)c(O)c1` [epinephrine] gave a Kd above 55000 nM.

Regarding `NCCc1c[nH]c2ccc(O)cc12` [serotonin], the Kd in test [1] was above 15000 nM.

In general, Kd refers to the constant that tells how readily two partners part at equilibrium. One may read the Ki as a dissociation constant, usually derived from enzyme kinetics or from competition with a known ligand.
